Protein sequences, listed by entry. Tags and fused reporters are not part of them. Residues count along the entry.
UniProt P25774, 115-331: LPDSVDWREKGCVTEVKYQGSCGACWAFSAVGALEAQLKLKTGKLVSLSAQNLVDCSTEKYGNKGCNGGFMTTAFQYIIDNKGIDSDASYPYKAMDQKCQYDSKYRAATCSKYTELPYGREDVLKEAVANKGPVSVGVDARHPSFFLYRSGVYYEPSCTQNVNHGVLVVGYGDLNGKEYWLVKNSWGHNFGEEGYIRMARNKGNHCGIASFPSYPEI

According to patent US20080200454A1, “CARBON-LINKED TETRAHYDRO-PYRAZOLO-PYRIDINE MODULATORS OF CATHEPSIN S” (priority 2007, published 2008):

The compounds below were run against Recombinant human cathepsin S (CatS) (Homo sapiens, UniProt P25774) (assay: Recombinant human cathepsin S (CatS) inhibition assay, fluorogenic substrate Z-Valine-Valine-Arginine-AMC). Details: not given.
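Also: Baculovirus-expressed CatS in pH 5.0 sodium acetate buffer with DTT and NaCl, fluorescence read each minute over 20 min, inhibition derived from rate slope.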

`CS(=O)(=O)N1CCc2c(c(-c3ccc(C(F)(F)F)c(C#Cc4ccc(Cl)cc4)c3)nn2CC(O)CN2CCC3(CCNC3=O)CC2)C1` (stereo not shown) [Example 118, 8-(3-{3-[3-(4-Chloro-phenylethynyl)-4-trifluoromethyl-phenyl]-5-methanesulfonyl-4,5,6,7-tetrahydro-pyrazolo[4,3-c]pyridin-1-yl}-2-hydroxy-propyl)-2,8-diaza-spiro[4.5]decan-1-one] and `CC1COCCN1CCCn1nc(-c2ccc(Cl)c(C#Cc3ccc(CNCc4ccc(Cl)cc4)cc3)c2)c2c1CCN(C(=O)C(N)=O)C2` (stereo not shown) [Example 621, 2-(3-{4-Chloro-3-[(4-{[(4-chlorobenzyl)amino]methyl}phenyl)ethynyl]phenyl}-1-[3-(3-methylmorpholin-4-yl)propyl]-1,4,6,7-tetrahydro-5H-pyrazolo[4,3-c]pyridin-5-yl)-2-oxoacetamide] are the same in IC50: 0.13 µM for the first, 0.13 µM for the second.

Same assay, conditions: CatS IC50

First: CS(=O)(=O)N1CCc2c(c(-c3ccc(Cl)c(C#Cc4cccc(O)c4)c3)nn2CCCN2CCOCC2)C1 [Example 27, 3-{2-Chloro-5-[5-methanesulfonyl-1-(3-morpholin-4-yl-propyl)-4,5,6,7-tetrahydro-1H-pyrazolo[4,3-c]pyridin-3-yl]-phenylethynyl}-phenol]
Second: CS(=O)(=O)N1CCc2c(c(-c3ccc(Cl)c(C#Cc4ccc5c(c4)CN[C@H](C(N)=O)C5)c3)nn2CCCN2CCOCC2)C1 [Example 195, (3S)-7-({2-Chloro-5-[5-(methylsulfonyl)-1-(3-morpholin-4-ylpropyl)-4,5,6,7-tetrahydro-1H-pyrazolo[4,3-c]pyridin-3-yl]phenyl}ethynyl)-1,2,3,4-tetrahydroisoquinoline-3-carboxamide]
The IC50 of the first is 7.8-fold higher: 1.01 µM for the first, 0.13 µM for the second.

`NC(=O)N1CCc2c(c(-c3ccc(Cl)c(C#Cc4ccc(COCC5CCNCC5)cc4)c3)nn2CCCN2CCSCC2)C1` [Example 163, 3-{4-Chloro-3-[(4-{[(piperidin-4-ylmethyl)oxy]methyl}phenyl)ethynyl]phenyl}-1-(3-thiomorpholin-4-ylpropyl)-1,4,6,7-tetrahydro-5H-pyrazolo[4,3-c]pyridine-5-carboxamide] and `NC(=O)N1CCc2c(c(-c3ccc(Cl)c(C#Cc4ccc(CNCc5ccc(F)cc5)cc4)c3)nn2CCCN2CCSCC2)C1` [Example 544, 3-(4-Chloro-3-{[4-({[(4-fluorophenyl)methyl]amino}methyl)phenyl]ethynyl}phenyl)-1-(3-thiomorpholin-4-ylpropyl)-1,4,6,7-tetrahydro-5H-pyrazolo[4,3-c]pyridine-5-carboxamide] are the same in IC50: 0.13 µM for the first, 0.13 µM for the second.

`CC(NCc1ccc(C#Cc2cc(-c3nn(CCCN4CCOCC4)c4c3CN(S(C)(=O)=O)CC4)ccc2Cl)cc1)c1ccccc1` (stereo not shown) [Example 210, N-{[4-({2-Chloro-5-[5-(methylsulfonyl)-1-(3-morpholin-4-ylpropyl)-4,5,6,7-tetrahydro-1H-pyrazolo[4,3-c]pyridin-3-yl]phenyl}ethynyl)phenyl]methyl}-1-phenylethanamine] and `C[C@@H]1CN(CCCn2nc(-c3ccc(Cl)c(C#Cc4ccc(CNCc5ccc(Cl)cc5)cc4)c3)c3c2CCN(S(C)(=O)=O)C3)C[C@H](C)O1` [Example 387, 1-[4-({2-Chloro-5-[1-{3-[(2R,6S)-2,6-dimethylmorpholin-4-yl]propyl}-5-(methylsulfonyl)-4,5,6,7-tetrahydro-1H-pyrazolo[4,3-c]pyridin-3-yl]phenyl}ethynyl)phenyl]-N-[(4-chlorophenyl)methyl]methanamine] are within 1.5-fold of each other in IC50: 0.19 µM for the first, 0.13 µM for the second.

`CS(=O)(=O)N1CCc2c(c(-c3ccc(Cl)c(C#Cc4ccc(CNCc5ccc(Cl)cc5)cc4)c3)nn2C[C@@H](O)CN2CCSCC2)C1` [Example 261, (S)-1-[3-(4-Chloro-3-{4-[(4-chloro-benzylamino)-methyl]-phenylethynyl}-phenyl)-5-methanesulfonyl-4,5,6,7-tetrahydro-pyrazolo[4,3-c]pyridin-1-yl]-3-thiomorpholin-4-yl-propan-2-ol] and `CS(=O)(=O)N1CCc2c(c(-c3ccc(Cl)c(CCc4ccc(CNCc5ccc(Cl)cc5)cc4)c3)nn2CCCN2CCOCC2)C1` [Example 319, 1-[4-(2-{2-Chloro-5-[5-(methylsulfonyl)-1-(3-morpholin-4-ylpropyl)-4,5,6,7-tetrahydro-1H-pyrazolo[4,3-c]pyridin-3-yl]phenyl}ethyl)phenyl]-N-[(4-chlorophenyl)methyl]methanamine] are the same in IC50: 0.13 µM for the first, 0.13 µM for the second.
